The values below are quoted from earlier work in US6664372B1, “Azatide peptidomimetics” (The Scripps Research Institute, priority 1996, dated 2003).

In the data set the target is Monoclonal antibody 3-E7. To be noted: read-out: Kd for binding to monoclonal antibody 3-E7; cited from earlier work.

One may read the Kd as the constant that tells how readily two partners part at equilibrium. As to “Tyr-Gly-Gly-Phe-Leu [[Leu^5]-enkephalin]”, the dissociation constant (Kd) is 7.1 nM.
